Yeast mating assay 2: variants of the scFv Ab-95

Values reported by Engelhart et al. 2022, doi:10.1038/s41597-022-01779-4 (FLAb copy).

The target is the same throughout: PDVDLGDISGINAS, from the HR2 region of SARS-CoV-2 spike.

Ab-95 is the parent antibody, in scFv form: VH, then a 15-residue (Gly4Ser)3 linker, then VL. The heavy chain is unchanged in all variants.
VH: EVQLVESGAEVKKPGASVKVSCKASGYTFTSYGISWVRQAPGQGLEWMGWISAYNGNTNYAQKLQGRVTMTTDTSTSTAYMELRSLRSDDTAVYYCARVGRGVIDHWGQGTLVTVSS
VL: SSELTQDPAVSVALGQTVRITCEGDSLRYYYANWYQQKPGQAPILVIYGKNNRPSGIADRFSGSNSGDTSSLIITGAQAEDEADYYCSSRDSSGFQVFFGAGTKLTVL

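The starting antibody came from a phage panning campaign against this peptide. AAYL52 was designed without a model: most single CDR substitutions and a random sample of double and triple ones. Affinity was read by AlphaSeq, a pooled yeast mating assay with surface-displayed partners. Mating (16 h, 30 °C) was followed by selection of diploids and sequencing of their barcodes. Each replicate has its own calibration line, from reference interactions of the BCL2 family. Mating was done three times.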

Positions count from residue 1 of the parent VL; R90N puts N in place of R.
Each Kd is an estimate from the mating assay, the geometric mean of the replicates in which the pair was seen; lower is stronger.
"not detected" marks a missing value. The strain was present, yet no cells mated with the target were sequenced in any replicate, which points to weak or no binding.
As a blank, each scFv also met three strains without target: over library AAYL52, 28% of these pairings were detected, typically at 8.2 µM and seldom below 800 nM. The control count says in how many pairings with the empty strains this scFv gave a signal.
For reference, the parent read 200 nM as the reference entry and 180 nM as a member of this library.

| # | changes | Kd (apparent) | replicates with signal | empty controls |
|---|---|---|---|---|
| 1 | R90N+S92R | not detected | 0/3 | 4/9 |
| 2 | Y29T+A32K+S88N | 4.1 µM | 2/3 | 3/9 |
| 3 | D91P+G94F+F98A | 4.5 µM | 2/3 | 2/9 |
| 4 | Y30P+G49R+S92D | 1.1 µM | 1/3 | 1/9 |
| 5 | A32L+G49K+F98N | not detected | 0/3 | 0/9 |
| 6 | S93Q+Q96R+F98M | 1.6 µM | 3/3 | 5/9 |
| 7 | D25N+Y31N+R90C | not detected | 0/3 | 1/9 |
| 8 | Y29R+N33P+S93M | 13 µM | 1/3 | 1/9 |
| 9 | L27Q+N52I+G94H | 6.5 µM | 1/3 | 3/9 |
| 10 | D25W+Y31F+N33L | 7.5 µM | 2/3 | 5/9 |
| 11 | Y30V+N52K+S92D | 180 nM | 3/3 | 3/9 |
| 12 | N52L+R90D+D91N | 2.6 µM | 1/3 | 1/9 |
| 13 | D91H+V97F | 100 nM | 3/3 | 2/9 |
| 14 | G24F+S89F+F95E | 1.0 µM | 3/3 | 4/9 |
| 15 | R28D+S89Q | 480 nM | 3/3 | 2/9 |
| 16 | R28N+N33E+F98T | 8.1 µM | 1/3 | 4/9 |
| 17 | G24P+S26C+L27F | 8.8 µM | 1/3 | 0/9 |
| 18 | S26L+G49N+N52R | not detected | 0/3 | 1/9 |
| 19 | Y29S+R53K+S55P | 11 nM | 3/3 | 2/9 |
| 20 | S26Q+R28V+P54K | 960 nM | 2/3 | 3/9 |
| 21 | D25V+A32I+S88D | not detected | 0/3 | 2/9 |
| 22 | N33I+G49T+G94E | 2.0 µM | 2/3 | 3/9 |
| 23 | Y29F+V97F+F98K | not detected | 0/3 | 0/9 |
| 24 | R28Q+S55W+F98C | 950 nM | 3/3 | 3/9 |
| 25 | R53V+P54I+V97Y | 4.2 µM | 3/3 | 2/9 |
| 26 | R28T+N33R+G94I | 160 µM | 2/3 | 3/9 |
| 27 | P54T+D91G+S93D | 4.5 µM | 3/3 | 3/9 |
| 28 | Y30L+Y31A+V97T | 1.6 µM | 1/3 | 3/9 |
| 29 | S88T+Q96Y | 2.2 µM | 2/3 | 1/9 |
| 30 | N33F+N51V+V97M | 1.5 µM | 1/3 | 3/9 |
| 31 | Y30K+N52R+P54T | 790 nM | 3/3 | 3/9 |
| 32 | Y30N+A32R+N52R | not detected | 0/3 | 2/9 |
| 33 | G24Q+P54A+F95Y | 78 nM | 3/3 | 3/9 |
| 34 | Y31Q+P54V+S93E | 220 nM | 3/3 | 3/9 |
| 35 | S55E+S88I+R90P | 15 µM | 1/3 | 1/9 |
| 36 | N33D+P54T+V97F | 65 µM | 2/3 | 6/9 |
| 37 | R28W+N33E+F98S | 72 µM | 3/3 | 3/9 |
| 38 | E23T+D25H+R90Y | 1.6 µM | 3/3 | 2/9 |
| 39 | L27K+G94L+F95T | not detected | 0/3 | 0/9 |
| 40 | E23Q+Y30E+R53T | 13 nM | 3/3 | 4/9 |
| 41 | L27W+Y31N+Q96H | 800 nM | 3/3 | 3/9 |
| 42 | G49V+S89W+S92I | 3.8 µM | 1/3 | 0/9 |
| 43 | S26M+N33Y+R53Q | 4.4 µM | 2/3 | 4/9 |
| 44 | E23N+G24D+S92V | 1.4 µM | 3/3 | 2/9 |
| 45 | R28G+R53W+S93V | 5.1 µM | 1/3 | 2/9 |
| 46 | G49H+S92A+S93M | 57 µM | 1/3 | 0/9 |
| 47 | L27F+N33P+N52R | 440 µM | 1/3 | 5/9 |
| 48 | Y31A+R53N+S93N | 4.4 µM | 3/3 | 1/9 |
| 49 | Y31F+A32I+S55T | not detected | 0/3 | 2/9 |
| 50 | Y29P+S93A | 6.0 µM | 3/3 | 4/9 |
| 51 | R28Q+S92M+S93P | 710 nM | 3/3 | 5/9 |
| 52 | S89H+F95S | 2.0 µM | 1/3 | 0/9 |
| 53 | Y29D+K50N+D91H | 19 nM | 3/3 | 3/9 |
| 54 | S26M+R90S | 11 µM | 2/3 | 5/9 |
| 55 | R53V+S89N+S93G | 590 nM | 3/3 | 3/9 |
| 56 | N51Q+G94L+Q96H | 8.3 µM | 3/3 | 4/9 |
| 57 | N33A+G49F+S92Q | not detected | 0/3 | 3/9 |
| 58 | D25C+Y29D+G49Y | 15 µM | 1/3 | 1/9 |
| 59 | G24Y+S88F+R90W | 8.1 µM | 1/3 | 2/9 |
| 60 | G49H+S55G+S88R | 52 µM | 2/3 | 3/9 |
| 61 | R53F+S92W+V97Q | 220 µM | 1/3 | 3/9 |
| 62 | N33P+K50W+P54S | 170 µM | 1/3 | 5/9 |
| 63 | K50P+R90E+F98K | 410 nM | 3/3 | 2/9 |
| 64 | S26K+N51E+V97E | not detected | 0/3 | 2/9 |
| 65 | S26V+G49Q+F95H | 4.1 µM | 1/3 | 3/9 |
| 66 | D25K+S26H+K50Y | 590 nM | 3/3 | 5/9 |
| 67 | G24W+P54R+Q96A | not detected | 0/3 | 2/9 |
| 68 | G24K+L27K+Y30F | 1.3 µM | 3/3 | 5/9 |
| 69 | D91N+S92N+Q96V | not detected | 0/3 | 4/9 |
| 70 | R28G+N51S+V97E | 220 µM | 1/3 | 3/9 |
| 71 | Y29F+N33S+R90M | 3.8 µM | 1/3 | 2/9 |
| 72 | E23V+G24D+D91P | 2.1 µM | 3/3 | 4/9 |
| 73 | K50W+P54K+S88G | not detected | 0/3 | 3/9 |
| 74 | Y29G+Y30E+D91H | 43 nM | 3/3 | 4/9 |
| 75 | R28F+K50W+S92Y | 29 µM | 1/3 | 3/9 |
| 76 | G49C+V97K+F98P | 1.6 µM | 3/3 | 1/9 |
| 77 | K50N+N52C+F95M | not detected | 0/3 | 0/9 |
| 78 | Y30D+N33W+R53I | 29 µM | 2/3 | 2/9 |
| 79 | R28G+Y31I+N52E | 950 nM | 3/3 | 4/9 |
| 80 | S55K+D91P+S93I | not detected | 0/3 | 2/9 |